# Antibody variant affinities, Ab-95 light chain, assay 2

The measurements come from Engelhart et al. 2022 (doi:10.1038/s41597-022-01779-4) through the FLAb antibody collection.

Antigen: PDVDLGDISGINAS, a 14-residue peptide of the SARS-CoV-2 spike HR2 region.

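In library AAYL52, one, two or three CDR residues were substituted; doubles and triples were drawn at random. The scFvs were displayed on barcoded MATa yeast, the peptide on MATalpha yeast. The frequency of each diploid, read from paired DNA barcodes, reflects how well the two displayed proteins bind. The ratio of observed to expected reads was calibrated, replicate by replicate, on BCL2-family standards whose Kd was known from biolayer interferometry. There are three technical replicates.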

Each scFv is VH, three GGGGS repeats, VL, as in the parent Ab-95, and differs from it in the CDRs of the light chain only.
VH: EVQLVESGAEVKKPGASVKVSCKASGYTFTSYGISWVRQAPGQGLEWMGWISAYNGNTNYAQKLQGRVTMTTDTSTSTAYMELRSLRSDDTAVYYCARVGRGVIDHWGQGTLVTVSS
VL: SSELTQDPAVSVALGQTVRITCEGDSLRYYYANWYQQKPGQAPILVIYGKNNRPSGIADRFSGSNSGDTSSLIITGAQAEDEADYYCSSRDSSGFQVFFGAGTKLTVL

Variants are written as CDR1, CDR2 and CDR3 of the light chain (limits as in the source). Parent: EGDSLRYYYAN, GKNNRPS, SSRDSSGFQVF.
All variants listed here change V97 of the VL, counted from its first residue.
Numbers give log10(Kd / nM), so 0 is 1 nM and 3 is 1 µM. Smaller is tighter.
A mean of the replicates is given; it leaves out those without a signal.
A pair that was not seen in any replicate is written "no signal"; this usually means weak binding, but a binder can also be missed.
In this assay the parent's reference entry averaged 2.31; its copy inside this library read 2.25.
Empty control strains, which show no peptide, gave a signal in 28% of pairings with library AAYL52; the median was 3.91 and 95% of these signals were weaker than 2.90. No background was subtracted.

The variant EGDSLRYYYAN / GKNNRPS / SSRDHSWFQRF showed 1.67 (3 of 3 replicates). The variant EGDSLRYEYAN / GKNNRPD / SSRDSSGFQHF showed 1.67 (3 of 3 replicates). For EGDSLIYYYAN / GKNNRPS / SSRDSSGFNKF, the assay gave 4.56 (2 of 3 replicates). The variant EGDSLVYYYAN / GKNNRPS / YSRDSSGFQLF gave 3.69 (2 of 3 replicates). With EGDSLRYYYAF / GKNNRPS / SSRDSSGFTMF the result was no signal (0 of 3 replicates). The variant EGDSLRYYRAN / GKNNRPS / SSRDSSGFRGF showed 2.82 (3 of 3 replicates).

For EGDSLRYYYAN / GKNNRPD / SSRMSSGFQMF, the assay gave 2.78 (3 of 3 replicates). The variant EGDSLRCYYTN / GKNNRPS / SSRDSSGFQCF showed 3.31 (2 of 3 replicates). The variant EGDSLRYYYAN / PKNNRNS / SSRDSSGFQPF gave no signal (0 of 3 replicates). The variant EFDSLRYYYAG / GKNNRPS / SSRDSSGFQNF gave 3.80 (3 of 3 replicates). With EGDSLRYYYAN / GKYNTPS / SSRDSSGFQGF the result was 2.46 (1 of 3 replicates). The variant EGDSLRYQYAN / GTNNRPS / SSRDSSGFQFF showed 1.60 (3 of 3 replicates).

The variant EGDDLRYYYAN / GKNNRPS / SSRDSSGKQSF gave 2.68 (3 of 3 replicates). For EADSLRYYYAN / GKNNRPS / SSRDSSGFQQD, the assay gave 3.94 (1 of 3 replicates). With EGDSLWYYYAN / GKNNLPS / SSRDSSGFQCF the result was 4.02 (3 of 3 replicates). The variant EGDSLRYYYAN / GKNNWPS / SSRDSYGFQGF showed 5.00 (1 of 3 replicates). For EGDSLRYYYAN / GKNNRPQ / SSRDVSGFQGF, the assay gave 2.60 (3 of 3 replicates). For EGDSLRWYYAN / GKNNRPS / SSRDSSGFNHF, the assay gave 4.11 (2 of 3 replicates).

For EGDSLRAYYAN / GKNNRPS / SSRDSSAFQMF, the assay gave 4.61 (1 of 3 replicates). For EGDSLRYEYAN / GKNNRPS / SSRDLSGFQPF, the assay gave 1.62 (3 of 3 replicates). The variant EGKSLRYYYAN / GKNNRPS / DSRDSSGFQIF showed 2.90 (3 of 3 replicates). For EGDSLLYYYAN / GKNNRPS / SSRDSCGFQRF, the assay gave no signal (0 of 3 replicates). The variant EGDSHRYYYAN / GKNNRPS / SKRDSSGFQYF showed 3.71 (2 of 3 replicates). For EGDSLRYYYAN / GKNNRPS / SSRYSSGFQPT, the assay gave 2.65 (3 of 3 replicates).

The variant EGDSLRYYYAN / YKNNRPS / SYRDSSGFQPF gave no signal (0 of 3 replicates). With EGDSLRYYYAN / GKNNRPS / SSRDSSCHQDF the result was 4.07 (3 of 3 replicates). For EGDRLRYYYAV / GKNNRPS / SSRDSSGFQTF, the assay gave 4.18 (1 of 3 replicates). The variant EGDGLRDYYAN / GKNNRPS / SSRDSSGFQAF gave 4.32 (2 of 3 replicates). With EGDSLMYYYAN / SKNNRPS / SSRDSSGFQYF the result was 3.48 (3 of 3 replicates). For EGDSLRYYYAN / GKANRPQ / SSRDSSGFQNF, the assay gave 2.89 (3 of 3 replicates).

The variant EGDSLRYYYAF / RKNNRPS / SSRDSSGFQNF gave 5.10 (1 of 3 replicates).